Source: patent US20060079453A1, “Hla binding peptides and their uses” (priority 2002, published 2006)
Read-outs that look alike come from different tables or passages of the source.

Sequences of proteins named here, by UniProt entry; tags and fusion partners are left off. Residues count along the entry.
UniProt Q30154, 30-266: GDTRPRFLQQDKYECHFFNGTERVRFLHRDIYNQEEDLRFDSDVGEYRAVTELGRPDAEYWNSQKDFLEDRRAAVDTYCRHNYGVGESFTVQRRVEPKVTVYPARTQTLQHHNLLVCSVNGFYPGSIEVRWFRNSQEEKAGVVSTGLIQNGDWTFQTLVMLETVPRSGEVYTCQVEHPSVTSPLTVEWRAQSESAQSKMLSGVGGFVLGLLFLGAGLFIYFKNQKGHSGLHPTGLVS

How the values were obtained:
Test in all cases: biochemical
Type in all cases: binding
HLA-DR DRB5*0101 (DR51) = HLA-DR DRB5*0101 (DR51) (Homo sapiens, UniProt P01903+Q30154); settings: DRB5 *0101
HLA-B*4002 = HLA-B*4002 (Homo sapiens, UniProt P01889, A65T/A93T/A95T/D138N/D201E/D98Y/E176V/E204Q/E69K/K202T/N87E/Q56L/Q94N/R180L/S48T/Y33H/Y91S)
HLA-B*4402 = HLA-B*4402 (Homo sapiens, UniProt P01889, A223V/A65T/A93T/A95T/D201E/D98Y/E176V/E187L/E204Q/E69K/G107R/H137Y/K202T/L105A/L119I/N104T/N87E/Q56L/Q94N/R106L/R155S/R180D/S101N/S121R/S35A/S48T/T118I/V36M/W191S/Y140D/Y91S)
HLA-B*4501 = HLA-B*4501 (Homo sapiens, UniProt P01889, A329T/A65T/A93T/A95T/C349S/D138N/D201E/D98Y/E176V/E187L/E204Q/E69K/H137Y/K202T/L119W/N87E/Q56L/Q94N/R155S/R180D/S121R/S35A/S48T/V127L/V306I/V36M/W191S/Y140L/Y33H/Y91S)
HLA-B*4001 = HLA-B*4001 (Homo sapiens, UniProt P01889, A65T/A93T/A95T/D138N/D98Y/E176V/E69K/N87E/Q56L/Q94N/R180L/S121R/S35A/S48T/T167S/V36M/W171L/Y33H/Y91S)
HLA-B*4403 = HLA-B*4403 (Homo sapiens, UniProt P01889, A223V/A65T/A93T/A95T/D201E/D98Y/E176V/E187L/E204Q/E69K/G107R/H137Y/K202T/L105A/L119I/N104T/N87E/Q56L/Q94N/R106L/R155S/R180L/S101N/S121R/S35A/S48T/T118I/V36M/W191S/Y140D/Y91S)
HLA-DR DRB1*0401 (DR4) = HLA-DR DRB1*0401 (DR4) (Homo sapiens, UniProt P01903+P01911, A100K/A169T/F76Y/I96L/K127E/L162R/M171V/N62H/P40V/Q125Y/R42H/S133A/S149N/S66Y/V115G/V209L/W38E)
HLA-DR DRB1*0101 (DR1) = HLA-DR DRB1*0101 (DR1) (Homo sapiens, UniProt P01903+P01911, A100R/D57E/F55L/F60I/F76Y/I96L/L162R/M171V/P40L/Q125E/R42F/V115G/Y59C)
HLA-DR DRB1*0405 (DR4) = HLA-DR DRB1*0405 (DR4) (Homo sapiens, UniProt P01903+P01911, A100R/A169T/D86S/F76Y/I96L/K127E/L162R/M171V/N62H/P40V/Q125Y/R42H/S133A/S149N/S66Y/V115G/V209L/W38E)
HLA-DR DRB1*1302 (DR13) = HLA-DR DRB1*1302 (DR13) (Homo sapiens, UniProt P01903+P01911, A100E/A169T/K41T/L162R/M171V/P40S/Q125H/Q178H/Q39Y/Q99D/R42S/S66N/T262R/V115G/W38E/Y61H); settings: DRBI *1302
HLA-B*1801 = HLA-B*1801 (Homo sapiens, UniProt P01889, A329T/A93T/A95T/C349S/D201E/D54G/D98Y/E176V/E187T/E204Q/E69T/K202T/Q94N/R155S/R180L/S121R/V306I/Y140S/Y195H/Y33H/Y91S)
HLA-DR DRB1*1501 (DR15) = HLA-DR DRB1*1501 (DR15) (Homo sapiens, UniProt P01903+P01911); settings: DRBI *1501

Molecule	IC50 (HLA-B*4002) [nM]	IC50 (HLA-B*4402) [nM]	IC50 (HLA-B*4501) [nM]	IC50 (HLA-B*4001) [nM]	IC50 (HLA-B*4403) [nM]	IC50 (HLA-B*1801) [nM]	further results
CC(C)C[C@H](NC(=O)[C@H](Cc1ccccc1)NC(=O)[C@H](CC(N)=O)NC(=O)[C@H](CO)NC(=O)[C@H](Cc1ccc(O)cc1)NC(=O)[C@@H](NC(=O)[C@H](CCCNC(=N)N)NC(=O)[C@H](Cc1ccccc1)NC(=O)[C@H](CC(C)C)NC(=O)[C@H](CCCCN)NC(=O)[C@H](CCCNC(=N)N)NC(=O)[C@H](Cc1ccccc1)NC(=O)[C@@H](NC(=O)[C@@H](N)CC(=O)O)[C@@H](C)O)C(C)C)C(=O)N[C@@H](CCCNC(=N)N)C(=O)O	–	–	–	–	–	–	IC50 (HLA-DR DRB5*0101 (DR51)): 26 nM
CC[C@H](C)[C@H](NC(=O)CNC(=O)[C@H](Cc1ccccc1)NC(=O)[C@@H](NC(=O)[C@H](CC(C)C)NC(=O)[C@H](CCC(N)=O)NC(=O)[C@H](CC(C)C)NC(=O)[C@H](Cc1ccc(O)cc1)NC(=O)[C@H](CCC(=O)O)NC(=O)[C@@H](N)CO)C(C)C)C(=O)O	6.1	3.7	4.4	20	0.84	–	–
CC(C)C[C@H](NC(=O)CNC(=O)[C@H](CO)NC(=O)[C@H](CC(N)=O)NC(=O)[C@H](CCCCN)NC(=O)[C@H](CCC(=O)O)NC(=O)[C@@H](N)[C@@H](C)O)C(=O)N[C@@H](Cc1ccc(O)cc1)C(=O)O	7120	1870	10200	9850	605	–	–
SDSNVYDLLKNLEEG	–	–	–	–	–	–	IC50 (HLA-DR DRB1*0401 (DR4); read-out: DRB1 *0401): 11000 nM; IC50 (HLA-DR DRB1*0101 (DR1); read-out: DRB1 *0101): 24400 nM; IC50 (HLA-DR DRB1*0405 (DR4); read-out: DRB1 *0405): 95 nM
CC[C@H](C)[C@H](NC(=O)[C@@H](NC(=O)[C@H](CCCCN)NC(=O)[C@@H](N)Cc1ccc(O)cc1)[C@@H](C)O)C(=O)N[C@@H](C)C(=O)N[C@@H](Cc1ccc(O)cc1)C(=O)N[C@@H](CC(=O)O)C(=O)N[C@@H](CCC(=O)O)C(=O)N[C@@H](CCC(=O)O)C(=O)N[C@@H](C)C(=O)N[C@@H](CCCNC(=N)N)C(=O)N[C@@H](CCCNC(=N)N)C(=O)O	–	–	–	–	–	–	IC50 (HLA-DR DRB1*0401 (DR4); DRB1 *0401): 4000 nM
CC(C)C[C@H](NC(=O)[C@H](Cc1ccc(O)cc1)NC(=O)[C@H](CC(N)=O)NC(=O)[C@H](CCC(=O)O)NC(=O)[C@@H](N)CCC(N)=O)C(=O)N[C@@H](CCC(=O)O)C(=O)N[C@@H](Cc1ccc(O)cc1)C(=O)N[C@@H](CCCNC(=N)N)C(=O)N[C@@H](CCC(N)=O)C(=O)N[C@H](C(=O)O)C(C)C	102	17	27	493	16	–	–
CC(C)C[C@H](NC(=O)CNC(=O)[C@H](Cc1ccc(O)cc1)NC(=O)[C@H](CC(N)=O)NC(=O)[C@H](CCCCN)NC(=O)[C@H](CC(C)C)NC(=O)[C@H](CC(C)C)NC(=O)[C@H](C)NC(=O)[C@H](CC(=O)O)NC(=O)[C@H](CC(=O)O)NC(=O)[C@H](CC(N)=O)NC(=O)[C@H](Cc1c[nH]cn1)NC(=O)[C@H](CO)NC(=O)[C@H](CC(N)=O)NC(=O)[C@@H](N)[C@@H](C)O)C(=O)O	–	–	–	–	–	–	IC50 (HLA-DR DRB1*0401 (DR4); DRB1 *0401): 20300 nM; IC50 (HLA-DR DRB1*0101 (DR1); DRB1 *0101): 16500 nM; IC50 (HLA-DR DRB1*1302 (DR13)): 5170 nM; IC50 (HLA-DR DRB1*0405 (DR4); DRB1 *0405): 16300 nM
CC(C)C[C@H](NC(=O)[C@@H]1CCCN1C(=O)[C@H](CO)NC(=O)[C@H](C)NC(=O)[C@@H]1CCCN1C(=O)CNC(=O)[C@H](CC(C)C)NC(=O)[C@H](CC(=O)O)NC(=O)[C@H](CCC(=O)O)NC(=O)[C@@H](N)CC(N)=O)C(=O)O	150	40	231	281	6	107	–
C[C@H](NC(=O)[C@H](CC(=O)O)NC(=O)[C@H](CC(=O)O)NC(=O)[C@H](CC(N)=O)NC(=O)[C@H](Cc1c[nH]cn1)NC(=O)[C@H](CO)NC(=O)[C@H](CC(N)=O)NC(=O)[C@@H](NC(=O)[C@H](CC(=O)O)NC(=O)[C@H](Cc1ccccc1)NC(=O)[C@H](CCCCN)NC(=O)[C@H](CO)NC(=O)[C@H](Cc1ccc(O)cc1)NC(=O)[C@@H](NC(=O)[C@@H](N)CCC(N)=O)[C@@H](C)O)[C@@H](C)O)C(=O)O	–	–	–	–	–	–	IC50 (HLA-DR DRB5*0101 (DR51)): 5790 nM; IC50 (HLA-DR DRB1*0401 (DR4); DRB1 *0401): 97 nM; IC50 (HLA-DR DRB1*0101 (DR1); DRB1 *0101): 17400 nM; IC50 (HLA-DR DRB1*0405 (DR4); DRB1 *0405): 78 nM; IC50 (HLA-DR DRB1*1501 (DR15)): 25900 nM
CC[C@H](C)[C@H](NC(=O)[C@H](CO)NC(=O)[C@@H](NC(=O)[C@H](CC(C)C)NC(=O)[C@@H]1CCCN1C(=O)[C@H](CO)NC(=O)[C@H](C)NC(=O)[C@H](CCCNC(=N)N)NC(=O)[C@H](CCC(N)=O)NC(=O)[C@H](CCC(=O)O)NC(=O)[C@H](C)N)[C@@H](C)O)C(=O)O	58	5.1	11	19	2.5	467	–
CC[C@H](C)[C@H](NC(=O)[C@H](CC(C)C)NC(=O)[C@H](C)NC(=O)[C@H](CCCNC(=N)N)NC(=O)[C@@H]1CCCN1C(=O)CNC(=O)[C@H](Cc1c[nH]c2ccccc12)NC(=O)[C@H](CC(C)C)NC(=O)[C@H](Cc1ccccc1)NC(=O)[C@H](CCC(=O)O)NC(=O)[C@@H](N)Cc1ccc(O)cc1)C(=O)O	2.8	92	450	4.1	0.59	5.2	–
ALGAQKEAISPPDAA	–	–	–	–	–	–	IC50 (HLA-DR DRB1*0101 (DR1); read-out: DRB1 *0101): 194 nM; IC50 (HLA-DR DRB1*0405 (DR4); read-out: DRB1 *0405): 13000 nM
CC[C@H](C)[C@H](NC(=O)[C@H](Cc1ccc(O)cc1)NC(=O)[C@H](CC(C)C)NC(=O)[C@H](Cc1c[nH]cn1)NC(=O)CNC(=O)[C@@H](NC(=O)[C@@H]1CCCN1C(=O)[C@H](CC(=O)O)NC(=O)[C@@H](NC(=O)[C@H](CCC(=O)O)NC(=O)[C@@H](N)CCSC)C(C)C)[C@@H](C)CC)C(=O)O	16	64	95	34	0.91	9.8	–
CC(C)C[C@H](NC(=O)[C@H](CC(=O)O)NC(=O)[C@@H]1CCCN1C(=O)[C@H](Cc1ccccc1)NC(=O)[C@@H](NC(=O)[C@H](CO)NC(=O)[C@@H]1CCCN1C(=O)CNC(=O)[C@H](CCC(=O)O)NC(=O)[C@H](CCC(=O)O)NC(=O)[C@@H](N)CCC(=O)O)[C@@H](C)O)C(=O)O	2120	2680	158	431	102	935	–
CSCC[C@H](NC(=O)[C@H](CC(=O)O)NC(=O)[C@H](CC(C)C)NC(=O)[C@H](Cc1c[nH]cn1)NC(=O)[C@@H](NC(=O)[C@H](CCC(=O)O)NC(=O)[C@@H]1CCCN1)[C@@H](C)O)C(=O)N[C@@H](CC(C)C)C(=O)N[C@@H](CCCNC(=N)N)C(=O)N[C@@H](Cc1c[nH]cn1)C(=O)N[C@@H](CC(C)C)C(=O)O	–	11500	4330	700	70	1320	–
CC(C)C[C@H](NC(=O)[C@@H]1CCCN1C(=O)[C@H](C)NC(=O)[C@@H](NC(=O)[C@H](Cc1ccc(O)cc1)NC(=O)CNC(=O)[C@H](CC(=O)O)NC(=O)[C@@H](NC(=O)[C@H](CCC(=O)O)NC(=O)[C@@H](N)CO)[C@@H](C)O)C(C)C)C(=O)O	184	386	302	214	2.4	94	–
CC[C@H](C)[C@H](NC(=O)[C@H](CCC(=O)O)NC(=O)[C@@H]1CCCN1)C(=O)N[C@@H](CCC(N)=O)C(=O)N[C@@H](CC(N)=O)C(=O)N[C@H](C(=O)N[C@H](C(=O)N[C@@H](Cc1ccc(O)cc1)C(=O)N[C@@H](CC(C)C)C(=O)O)[C@@H](C)O)[C@@H](C)O	–	16800	1820	138	231	923	–
